# Assay results from publication PMC551613, “Engineered G protein coupled receptors reveal independent regulation of internalization, desensitization and acute signaling” (2005).
# Amino acid sequences for entries named in this document (tags omitted).
# UniProt P41145, whole entry E297Q/S356A/T357A/S358A/T363A, looked up: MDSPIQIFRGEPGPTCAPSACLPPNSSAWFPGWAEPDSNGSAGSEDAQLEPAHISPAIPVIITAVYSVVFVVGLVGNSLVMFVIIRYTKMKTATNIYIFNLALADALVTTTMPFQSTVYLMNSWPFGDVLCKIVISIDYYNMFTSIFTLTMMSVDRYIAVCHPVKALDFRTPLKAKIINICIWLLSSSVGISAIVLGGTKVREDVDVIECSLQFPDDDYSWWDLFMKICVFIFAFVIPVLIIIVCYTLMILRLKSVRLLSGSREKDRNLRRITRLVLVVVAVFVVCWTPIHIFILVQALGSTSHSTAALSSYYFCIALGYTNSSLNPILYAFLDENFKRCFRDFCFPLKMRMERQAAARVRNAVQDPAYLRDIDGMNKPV
# UniProt P41145, whole entry E297Q, looked up: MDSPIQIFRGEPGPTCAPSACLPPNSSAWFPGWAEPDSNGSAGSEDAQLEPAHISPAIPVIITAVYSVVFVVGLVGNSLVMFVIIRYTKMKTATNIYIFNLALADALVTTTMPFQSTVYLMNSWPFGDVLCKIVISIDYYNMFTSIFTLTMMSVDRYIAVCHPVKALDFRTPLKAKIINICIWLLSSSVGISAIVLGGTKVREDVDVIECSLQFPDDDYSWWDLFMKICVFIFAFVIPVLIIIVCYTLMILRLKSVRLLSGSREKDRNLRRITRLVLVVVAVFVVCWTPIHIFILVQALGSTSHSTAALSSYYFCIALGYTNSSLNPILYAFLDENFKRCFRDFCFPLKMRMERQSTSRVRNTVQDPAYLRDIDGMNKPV
# pEC50: −log10 of the molar value. Read-outs that look alike come from different tables or passages of the source.
# Tests used:
# [1] = system: original RASSLs; conditions: spiradoline; cited from earlier work
# [2] = system: KOR; assay: Cell-surface ELISA (receptor internalization); conditions: 100 μM spiradoline, data not shown
# [3] = molecular target: T1, Rog-A (Homo sapiens, UniProt P41145, E297Q/S356A/S358A/T357A/T363A, form not given); assay: Cell-surface ELISA (receptor internalization); conditions: 1 μM spiradoline
# [4] = molecular target: T2, Rog (Homo sapiens, UniProt P41145, E297Q, form not given); assay: FLIPR calcium assay, CHO cells co-transfected with Gqi5; conditions: Rog in CHO cells; range of doses
# [5] = molecular target: T2, Rog; assay: Confocal microscopy of GFP-tagged receptor localization; conditions: spiradoline 10–100 μM, one hour
# [6] = molecular target: T1, Rog-A; assay: as above; conditions: 10 μM spiradoline, one hour, stable HEK293
# [7] = molecular target: T3, Rog-μ (Homo sapiens, UniProt P41145, E297Q, form not given); assay: as above; conditions: 10 μM spiradoline, one hour
# [8] = molecular target: T2, Rog; assay: Cell-surface ELISA (receptor internalization / surface expression)
# [9] = molecular target: T3, Rog-μ; assay: as above; conditions: 0.01 to 0.1 μM spiradoline, 1 h
# [10] = system: RASSLs (all receptor types); assay: Cell-surface ELISA in parallel with the AC superactivation experiment; conditions: 10 nM spiradoline for 18 hours; no significant differences between receptor types
# [11] = molecular target: T2, Rog; assay: cAMP accumulation assay (inhibition of forskolin-induced cAMP), HEK293 cells transiently expressing receptor
# [12] = molecular target: T1, Rog-A; assay: as above
# [13] = molecular target: T3, Rog-μ; assay: as above
# [14] = molecular target: Rog-μA (Homo sapiens, UniProt P41145, E297Q, form not given); assay: as above
# [15] = molecular target: human KOR (Homo sapiens, UniProt P41145); assay: as above; conditions: read-out: EC50 for inhibition of cAMP accumulation, acute, representative experiment
# [16] = after 1 nM spiradoline pretreatment, mean ± SEM
# [17] = read-out: EC50 for inhibition of cAMP accumulation, after 1 nM spiradoline pretreatment, mean ± SEM
# [18] = read-out: EC50 for inhibition of cAMP accumulation, acute activation, mean ± SEM
smiles,measurement,setting,value
CN(C(=O)Cc1ccc(Cl)c(Cl)c1)C1CCC2(CCCO2)CC1N1CCCC1 (centres unmarked),response relative to the wild-type KOR,[1],not altered
same,loss of receptor from the cell surface,[2],47%
same,time to maximal internalization,[3],20 min
same,receptors internalized,[3]; 20 min,< 10%
same,transient calcium response (Gi activation via Gqi5),[4],responded dose-dependently
same,receptor internalization seen by confocal microscopy,[5],"observed in bright, punctate intracellular vesicles"
same,receptor internalization seen by confocal microscopy,[6],most Rog-A receptors appeared to remain in the membrane
same,receptor internalization seen by confocal microscopy,[7],nearly complete internalization
same,time to maximal receptor loss,[8]; 1 μM spiradoline,approximately 20 min
same,loss of cell-surface receptors,"[8]; 100 μM spiradoline (maximal dose), 1 h",approximately 45%
same,internalization,[9],25–30%
same,receptors internalized,[10],7–10%
same,shift of dose response curve after spiradoline pretreatment,[11]; 1 nM spiradoline pretreatment vs vehicle,approximately 10 fold
same,AC superactivation (forskolin-stimulated cAMP after chronic agonist),"[11]; 10 nM spiradoline 18 hours, then 10 μM forskolin, vs forskolin alone",twice as much cAMP
same,% Inhibition of cAMP accumulation (Emax),[11]; [16],55.7 ± 3.7%
same,pEC50,"[11]; read-out: EC50 for inhibition of cAMP accumulation, acute activation (15-min treatment), mean ± SEM",9.39
same,pEC50,[11]; [17],8.36
same,% Inhibition of cAMP accumulation (Emax),[12]; [16],53.3 ± 0.9%
same,AC superactivation (forskolin-stimulated cAMP after chronic agonist),"[12]; overnight spiradoline, then 10 μM forskolin, compared with Rog",slightly smaller increase in cAMP
same,pEC50,[12]; [18],9.39
same,pEC50,[12]; [17],9.38
same,AC superactivation (forskolin-stimulated cAMP after chronic agonist),[13]; 18 h spiradoline pretreatment,no evidence of AC superactivation
same,% Inhibition of cAMP accumulation (Emax),[13]; [16],43.6 ± 1.5%
same,pEC50,[13]; [18],9.38
same,pEC50,[13]; [17],8.69
same,AC superactivation (forskolin-stimulated cAMP after chronic agonist),[14]; 18 h spiradoline pretreatment,no evidence of AC superactivation
same,pEC50,[14]; [18],9.30
same,pEC50,"[14]; read-out: EC50 for inhibition of cAMP accumulation, after 1 nM spiradoline pretreatment, estimate, no sigmoidal curve fitted up to 100 nM",≤ 7.87
same,pEC50,[15],9.04
